Assay results: article PMC7683652 (Nature Communications, 2020)

Target: T1, N-terminal biotinylated Aβ40 (UniProt P05067 672-711, biotin on the N-terminus)
T1 construct: amyloid-β of 40 amino acids (Aβ40), cleavage product of amyloid precursor protein; HFIP- and NaOH-treated before use; also called biotin-Aβ40; biotin-labeled Aβ40; source: bought: Biopeptide Inc
Assay: BLI; Octet RED96; N-terminally biotinylated Aβ40 immobilised on streptavidin sensors; TDP-43 variants in solution; 10 mM Tris pH 7.8, 0.005% Tween-20; 37 °C; association and dissociation 300 s each; double references
Details: both partners purified

Kd: < 1 pM
koff: < 1e-07 s⁻¹
kon: 9000 M⁻¹ s⁻¹
B1: TDP-43 RNA recognition region (aa 101-265) (domain or fragment, UniProt Q13148 101-265, looked up)
chain: QKTSDLIVLGLPWKTTEQDLKEYFSTFGEVLMVQVKKDLKTGHSKGFGFVRFTEYETQVKVMSQRHMIDGRWCDCKLPNSKQSQDEPLRSRKVFVGRCTEDMTEDELREFFSQYGDVMDVFIPKPFRAFAFVTFADDQIAQSLCGEDLIIKGISVHISNAEPKHN
notes: calculated 20.4 kDa; also called TDP-43_RRM1 + 2; TDP-43_RRM1 + RRM2; source: E. coli M15 (pQE30), purified (Ni-NTA)
